By UniProt entry, the sequences of proteins in these tests, tags left out.
UniProt P34913, whole entry: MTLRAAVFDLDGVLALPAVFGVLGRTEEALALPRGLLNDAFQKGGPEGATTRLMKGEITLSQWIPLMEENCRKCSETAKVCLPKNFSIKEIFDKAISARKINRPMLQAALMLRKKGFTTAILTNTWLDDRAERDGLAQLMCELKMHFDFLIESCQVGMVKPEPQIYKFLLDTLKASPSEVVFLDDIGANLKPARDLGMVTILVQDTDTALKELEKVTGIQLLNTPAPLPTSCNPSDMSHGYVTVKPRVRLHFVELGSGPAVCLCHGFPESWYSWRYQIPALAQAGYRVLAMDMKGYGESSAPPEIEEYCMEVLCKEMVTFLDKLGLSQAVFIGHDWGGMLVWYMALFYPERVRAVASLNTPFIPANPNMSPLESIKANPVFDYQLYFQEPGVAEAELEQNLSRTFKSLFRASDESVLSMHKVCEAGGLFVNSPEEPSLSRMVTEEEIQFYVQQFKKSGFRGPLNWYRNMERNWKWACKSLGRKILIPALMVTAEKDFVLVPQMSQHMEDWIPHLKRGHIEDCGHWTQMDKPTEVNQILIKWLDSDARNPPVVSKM

According to article PMC8637440, “Structural Modifications Yield Novel Insights Into the Intriguing Pharmacodynamic Potential of Anti-inflammatory Nitro-Fatty Acids” (Frontiers in Pharmacology, 2021):

Key:
[1] = molecular target: T1, sEH (Homo sapiens, UniProt P34913); assay type: biochemical; set-up: purchased Cayman Chemicals #10011671; conditions: 0.01 µM
[2] = molecular target: T1, sEH; test: Cell-based sEH activity assay in HepG2 cells; set-up: endogenous in cells; host or cells: HepG2; conditions: 10 µM

In the case of AUDA [reference compound], the “inhibition of recombinant sEH” value [1] is reported as 80–95% and the “inhibition of sEH activity in HepG2 cells” value [2] is reported as 80–95%.
